The values below come from patent publication US20250197414A1, “SALT FORM AND CRYSTAL FORM OF VANIN ENZYME INHIBITOR, METHOD FOR PREPARING SAME, AND USE THEREOF” (SHANGHAI MEIYUE BIOTECH DEVELOPMENT CO., LTD., priority 2022, published 2025).

Data set [1] is described as follows: Solubility test of compound of formula I and its salts at 37° C. The data set is classed as physicochemical. On the procedure: The solubility of the compound of formula I and the L-tartrate, fumarate, and D-malate thereof was studied in water, SGF, FaSSIF, FeSSIF, and pH 7.4 at 37° C.
Experimental method: 30 mg (in water) or 15 mg of the sample was weighed into a 4 mL vial, then 3 mL of the medium to be tested was added thereto, and the resulting mixture was stirred continuously at 37° C. 0.5 mL of the sample was collected at 1 hour and 24 hours, respectively, and centrifuged at 12,000 rpm for 5 minutes. The supernatant was diluted to an appropriate multiple with 50% acetonitrile and its concentration was determined.
Therefore, 13 mg of the fumarate of the compound of formula I was weighed into a 25 mL volumetric flask (approximately 10 mg added to the 25 mL volumetric flask, calculated as free base), dissolved in 50% acetonitrile aqueous solution and diluted to the scale, and two samples were prepared in parallel. STD-1 was diluted to 200 μg/mL, 50 μg/mL, and 10 μg/mL with 50% acetonitrile aqueous solution. 5 μL of the sample was injected, and the standard curve was plotted.

Data set [2] in a line: Solubility study on crystal form A at 37° C. The data set is classed as physicochemical. The method, then:
The solubility of the crystal form Ain SGF, FaSSIF, FeSSIF, and pH 7.4 was evaluated.

The structures appear in SMILES notation.

As for `O=C(O)CC(O)C(=O)O.O=C(c1cnc(NC2CCc3ncccc32)nc1)N1CCC2(CCOCC2)C1` [D-malate of compound of formula I], the “Final pH” value in data set [1] (FaSSIF, 37° C.) turned out to be 4.47; in data set [1] (FeSSIF, 37° C.), 4.75; in data set [1] (SGF, 37° C.) it was 1.36; in data set [1] (pH 7.4, 37° C.) it was 6.60.

Consider `O=C(O)C=CC(=O)O.O=C(c1cnc(NC2CCc3ncccc32)nc1)N1CCC2(CCOCC2)C1` (stereo not drawn) [Fumarate of compound of formula I], for which the “Final pH” value worked out at 4.01 in data set [1] (FaSSIF, 37° C.); 4.71 in data set [1] (FeSSIF, 37° C.); 1.36 in data set [1] (SGF, 37° C.); 6.54 in data set [1] (pH 7.4, 37° C.).

In the case of `O=C(c1cnc(N[C@@H]2CCc3ncccc32)nc1)N1CCC2(CCOCC2)C1` [Mono-L-tartrate of compound of formula I], the “Final pH” value in data set [1] (FeSSIF, 37° C.) came to 4.69; in data set [1] (SGF, 37° C.), 1.37; in data set [1] (pH 7.4, 37° C.), 6.58.

Turning to `O=C(O)C(O)C(O)C(=O)O.O=C(c1cnc(NC2CCc3ncccc32)nc1)N1CCC2(CCOCC2)C1` (stereo not drawn) [crystal form A], the “Final pH” value in data set [2] (FaSSIF, 37° C.) stood at 4.32; in data set [2] (FeSSIF, 37° C.), 4.77; in data set [2] (SGF, 37° C.) it was 1.29; in data set [2] (pH 7.4, 37° C.) it was 6.57. Further, the Phenomenon result in data set [2] (FaSSIF, 37° C.) is listed as “Solid dissolves immediately”; in data set [2] (FeSSIF, 37° C.), “Solid dissolves immediately”; in data set [2] (SGF, 37° C.) it was “Solid dissolves immediately”; in data set [2] (pH 7.4, 37° C.), “Solid dissolves immediately”. The Solubility (commonly how much of the substance goes into solution per volume) in data set [2] (FaSSIF, 37° C.) was >7600 µg/mL; in data set [2] (FeSSIF, 37° C.) it was >7300 µg/mL; in data set [2] (SGF, 37° C.), >7100 µg/mL; in data set [2] (pH 7.4, 37° C.), >7200 µg/mL. In data set [2] (all media (SGF, FaSSIF, FeSSIF, pH 7.4)), the “solubility (in words)” value is given as “good solubility”.
